Experimental data reported in PMC12606464, “Investigating NFE2L1 activators for targeted protein aggregate clearance: a follow-up study” (RSC Medicinal Chemistry, 2025).

Tested on: SNCA-EGFP
Assay: SNCA-EGFP degradation in SH-SY5Y cells
Format: cell-based, human
Description: This reporter is prone to aggregation because of its slow protein turnover. To assess compound efficacy, we measured the fluorescence signal of GFP-tagged synuclein within aggregates.
The GFP fluorescence signal was then normalized to that of the DMSO control and the cell number. The experiment was performed in at least five biological replicates. Statistical analysis was performed using paired t-tests with Holm–Šídák correction for multiple comparisons (α = […]
SH-SY5Y cells stably expressing SNCA-EGFP were seeded on a plate and allowed to […]
tadalafil (5 µM), or RUN compounds at a concentration of 1 µM or treated with an equivalent volume of DMSO dissolved in buffer as a vehicle control. The treatment was performed for 16 hours and then fluorescence was measured. The GFP signal intensity was normalized to both the DMSO control and the cell count.

Compound: O=[N+]([O-])c1ccc(-c2nc(-c3ccncc3)c(-c3ccc(F)cc3)[nH]2)cc1 [PD169316, reference compound]
- EGFP-SNCA aggregation (GFP signal): reduction
